The results in this text go back to ChEMBL document CHEMBL5728058, “3-(carboxymethyl)-8-amino-2-oxo-1,3-diaza-spiro-[4.5]-decane derivatives” (2020).

Chains of the proteins cited; added tags and fusions are not shown. Lines headed by an entry give the natural chain unless they say otherwise; changes in a name come on top.
UniProt P41146: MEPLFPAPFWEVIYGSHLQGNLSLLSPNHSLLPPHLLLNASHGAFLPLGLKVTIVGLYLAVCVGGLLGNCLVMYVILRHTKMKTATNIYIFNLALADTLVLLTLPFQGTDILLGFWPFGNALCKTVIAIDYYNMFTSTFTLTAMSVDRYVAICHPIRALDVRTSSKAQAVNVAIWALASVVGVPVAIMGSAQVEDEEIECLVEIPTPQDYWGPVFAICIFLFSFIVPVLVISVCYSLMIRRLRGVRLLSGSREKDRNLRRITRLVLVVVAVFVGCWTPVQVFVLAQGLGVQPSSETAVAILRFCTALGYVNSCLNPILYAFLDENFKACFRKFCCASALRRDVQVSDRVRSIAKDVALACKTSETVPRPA
UniProt P35372, whole entry, looked up: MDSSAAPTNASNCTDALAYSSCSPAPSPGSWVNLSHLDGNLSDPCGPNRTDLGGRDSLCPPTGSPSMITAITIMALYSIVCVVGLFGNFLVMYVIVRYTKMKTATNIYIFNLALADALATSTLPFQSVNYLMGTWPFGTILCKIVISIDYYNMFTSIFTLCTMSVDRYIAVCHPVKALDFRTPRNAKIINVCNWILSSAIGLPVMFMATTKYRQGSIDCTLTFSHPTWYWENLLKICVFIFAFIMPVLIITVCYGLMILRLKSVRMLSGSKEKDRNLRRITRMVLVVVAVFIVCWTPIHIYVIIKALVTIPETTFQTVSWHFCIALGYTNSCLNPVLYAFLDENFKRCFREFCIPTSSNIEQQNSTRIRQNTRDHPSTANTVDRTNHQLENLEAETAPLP

Assay [1] addresses Nociceptin receptor (Homo sapiens, UniProt P41146). The experiment in a line: Human Nociceptin/Orphanin FQ Peptide (hNOP) Receptor Binding Assay: The hNOP receptor binding assay was performed as homogeneous SPA-assay (scintillation proximity assay) using the assay buffer 50 mM TRIS-HCl, 10 mM MgCl2, 1 mM EDTA (pH 7.4). The final assay volume (250 μl/well) included 0.5 nM of [leucyl-3H]nociceptin as ligand (PerkinElmer Life Sciences, Inc. Boston, Mass., USA), and either test.

Assay [2] addresses Mu-type opioid receptor (Homo sapiens, UniProt P35372). Nature of the assay: Human Mu-Opioid Peptide (hMOP) Receptor Binding Assay: The hMOP receptor binding assay was performed as homogeneous SPA-assay (scintillation proximity assay) using the assay buffer 50 mM TRIS-HCl (pH 7.4) supplemented with 0.052 mg/ml bovine serum albumin (Sigma-Aldrich Co., St. Louis, Mo.). The final assay volume (250 μl/well) included 1 nM of [N-allyl-2,3-3H]naloxone as ligand (PerkinElmer Life.

Values joined by “and” are separate entries in the source; they are usually repeats but may differ in a detail not shown here. Equal entries are not always repeated.

Compound `CN(C)[C@]1(c2ccccc2)CC[C@]2(CC1)CN(CC(=O)N1CCOC(CO)C1)C(=O)N2CC1CCC1` (stereo not given in full) had a Ki in assay [1] of 3.2 nM.
Regarding `CN(C)[C@]1(c2ccccc2)CC[C@]2(CC1)CN(CC(=O)NCCO)C(=O)N2CC1(C)CCC1`, the Ki in assay [2] is 92 nM; in assay [1] it was 18 nM.
The corresponding values for `CN(C)[C@]1(c2ccccc2)CC[C@]2(CC1)CN(CC(=O)NCCS(C)(=O)=O)C(=O)N2CC1CC1` are 97 nM and 8 nM.
Regarding `COCCCN1C(=O)N(CC(=O)Nc2cncnc2)C[C@]12CC[C@](c1ccccc1)(N(C)C)CC2`, the Ki in assay [2] came to 124 nM; in assay [1], 11.2 nM.
On to `CN(C)[C@]1(c2ccccc2)CC[C@@]2(CC1)CN(CC(N)=O)C(=O)N2CC1CC1`, for which the Ki in assay [2] came out at 225 nM; in assay [1], 185 nM.
On the same counts, the results for `COC(=O)c1ccnc(NC(=O)CN2C[C@]3(CC[C@](c4ccccc4)(N(C)C)CC3)N(CC3CCC3)C2=O)c1` are 69.5 nM and 4.9 nM.
Compound `CN(C)[C@]1(c2ccccc2)CC[C@]2(CC1)CN(CC(=O)NCc1cnco1)C(=O)N2CC1CCC1` had a Ki in assay [1] of 3.3 nM.
As for `CN(C)[C@]1(c2ccccc2)CC[C@]2(CC1)CN(CC(=O)NCCO)C(=O)N2CC1CC1`, the Ki in assay [2] worked out at 145 nM; in assay [1], 13 nM.
Take `CNC(=O)c1ccnc(NC(=O)CN2C[C@]3(CC[C@](c4ccccc4)(N(C)C)CC3)N(CC3CCC3)C2=O)c1`: the Ki in assay [2] was determined as 25 nM; in assay [1], 3.5 nM.
In assay [1], `CN(C)CCNC(=O)CN1C[C@]2(CC[C@](c3ccccc3)(N(C)C)CC2)N(CC2CCC2)C1=O` showed a Ki of 4.6 nM.
`CN[C@]1(c2ccccc2)CC[C@]2(CC1)C(=O)N(CC(=O)N1CCS(=O)(=O)CC1)C(=O)N2CC1(O)CCC1`: the affinity in assay [1], expressed as Ki, was 23 nM.
On the same count and under the same terms, the result for `CN(CCO)C(=O)CN1C[C@]2(CC[C@](c3ccccc3)(N(C)C)CC2)NC1=O` reads 465 nM; that for `CN[C@]1(c2ccccc2)CC[C@]2(CC1)CN(CC(=O)N(C)CCO)C(=O)N2`, 1140 nM; that for `COCCN1C(=O)N(CC(=O)NCCO)C[C@]12CC[C@](c1ccccc1)(N(C)C)CC2`, 115 nM.
For `CNC(=O)CNC(=O)CN1C[C@]2(CC[C@@](NC)(c3ccccc3)CC2)N(CC2CCC2)C1=O`, the Ki in assay [1] is 34.5 nM.
The same measure, in the same setting: in the case of `CNC(=O)CN1C[C@]2(CC[C@](c3ccccc3)(N(C)C)CC2)N(CC2(C)CCC2)C1=O` it was 8.2 nM.
Still for that read-out and setting: the result for `COc1ncc(CNC(=O)CN2C[C@]3(CC[C@](c4ccccc4)(N(C)C)CC3)N(CC3CCC3)C2=O)cn1` reads 3.5 nM; that for `CN(C)[C@]1(c2ccccc2)CC[C@]2(CC1)CN(CC(=O)Nc1ccccc1)C(=O)N2`, 52 nM.
Still for that read-out and setting: in the case of `CN[C@]1(c2ccccc2)CC[C@]2(CC1)CN(CC(=O)NC1COC1)C(=O)N2CC1(O)CCC1` it was 145 nM; in that of `CN(C)[C@]1(c2ccccc2)CC[C@]2(CC1)CN(CC(=O)Nc1ccccn1)C(=O)N2CC1(O)CCC1`, 12.5 nM.
`CN(C)[C@]1(c2ccccc2)CC[C@]2(CC1)CN(CC(=O)NC1COC1)C(=O)N2CC1(O)CCC1`: the Ki in assay [1] is 23 nM.
The same measure, in the same setting: in the case of `CNC(=O)CN1C[C@]2(CC[C@](c3ccccc3)(N(C)C)CC2)N(CC(C)C)C1=O` it was 15.3 nM; in that of `CN(C)[C@]1(c2ccccc2)CC[C@@]2(CC1)CN(CC(=O)N1CCS(=O)(=O)CC1)C(=O)N2CC1CC1`, 160 nM; in that of `CN[C@]1(c2ccccc2)CC[C@]2(CC1)CN(CC(=O)N(C)CC(N)=O)C(=O)N2`, 1110 nM.
`CCN(C)[C@]1(c2ccccc2)CC[C@]2(CC1)CN(CC(=O)NC)C(=O)N2CC1CCC1`: the affinity in assay [1], expressed as Ki, was 36.5 nM.
In the case of `CN(C)[C@]1(c2ccccc2)CC[C@]2(CC1)CN(CC(=O)Nc1cncnc1)C(=O)N2CC1(O)CCC1`, the Ki in assay [1] was 5.8 nM.
Still for that read-out and setting: the result for `COCCCN1C(=O)N(CC(=O)Nc2cccc(OC)n2)C[C@]12CC[C@](c1ccccc1)(N(C)C)CC2` reads 9.1 nM; that for `CN(C)[C@]1(c2ccccc2)CC[C@]2(CC1)CN(CC(=O)NCCO)C(=O)N2CC1CCC1`, 1.8 nM and 4.9 nM.
The same measure, in the same setting: in the case of `COCCOCCOCCOCCNC(=O)CN1C[C@]2(CC[C@](c3ccccc3)(N(C)C)CC2)NC1=O` it was 475 nM; in that of `CN(CC(N)=O)C(=O)CN1C[C@]2(CC[C@](c3ccccc3)(N(C)C)CC2)NC1=O`, 230 nM.
In turn, `Cc1cnc(NC(=O)CN2C[C@]3(CC[C@](c4ccccc4)(N(C)C)CC3)N(CC3CCC3)C2=O)cn1` displayed a Ki in assay [2] of 39 nM. In other words, the double-digit nanomolar range.
For the compound `CN[C@]1(c2ccccc2)CC[C@]2(CC1)CN(CC(N)=O)C(=O)N2CC1(O)CCC1`, the Ki in assay [2] is 71 nM. Compared with the last compound, the Ki is about 1.8-fold higher.
`C[C@H](CO)NC(=O)CN1C[C@]2(CC[C@](c3ccccc3)(N(C)C)CC2)N(CC2CCC2)C1=O` had a Ki in assay [1] of 3.7 nM. That is a single-digit nanomolar value.
For `CN(C)[C@]1(c2ccccc2)CC[C@@]2(CC1)CN(CC(=O)NCCO)C(=O)N2CC1CCC1`, in assay [1], the affinity, expressed as Ki, was 66 nM. This Ki is about 18-fold higher than that of the compound before.
In assay [2], `Cn1ccc(NC(=O)CN2C[C@]3(CC[C@](c4ccccc4)(N(C)C)CC3)N(CC3CCC3)C2=O)n1` returned a Ki of 71 nM.
With `CN(C)[C@]1(c2ccccc2)CC[C@]2(CC1)CN(CC(=O)N1C[C@@H](O)[C@@H](O)C1)C(=O)N2CC1CCC1`, the Ki in assay [1] is 5.1 nM and 4.5 nM.
Consider `COc1cccnc1NC(=O)CN1C[C@]2(CC[C@](c3ccccc3)(N(C)C)CC2)N(CC2CCC2)C1=O`, for which affinity in assay [2] was put at a Ki of 104 nM.
For the compound `CN(C)[C@]1(c2ccccc2)CC[C@]2(CC1)CN(CC(=O)Nc1ncccc1C#N)C(=O)N2CC1CCC1`, in assay [2], affinity was put at a Ki of 20.5 nM.
Consider `CN(C)[C@]1(c2ccccc2)CC[C@]2(CC1)CN(CC(=O)Nc1ccon1)C(=O)N2CC1CCC1`, for which the Ki in assay [2] is 59 nM.
For the compound `Cc1ccncc1CNC(=O)CN1C[C@]2(CC[C@](c3ccccc3)(N(C)C)CC2)N(CC2CCC2)C1=O`, the Ki in assay [2] was 15.5 nM. This Ki lies about 3.8-fold lower than the previous one.
Still for that read-out and setting: the result for `CCOC(=O)CN1C[C@]2(CC[C@](c3ccccc3)(N(C)C)CC2)N(CC2CCC2)C1=O` reads 38.5 nM.
`COCCCN1C(=O)N(CC(=O)NCCC#N)C[C@]12CC[C@](c1ccccc1)(N(C)C)CC2` had a Ki in assay [1] of 70.5 nM. In other words, the double-digit nanomolar range.
In assay [2], `CN(C)[C@]1(c2ccccc2)CC[C@]2(CC1)CN(CC(=O)Nc1cc(C#N)ccn1)C(=O)N2CC1CCC1` registered a Ki of 74.5 nM.
Turning to `COCCOCCOCCOCCOCCOCCOCCOCCNC(=O)CN1C[C@]2(CC[C@](c3ccccc3)(N(C)C)CC2)N(CC2CCC2)C1=O`, the Ki in assay [1] was 68.5 nM.
As to `COc1ccncc1CNC(=O)CN1C[C@]2(CC[C@](c3ccccc3)(N(C)C)CC2)N(CC2CCC2)C1=O`, the Ki in assay [2] was 4.5 nM.
As to `COc1nccc(NC(=O)CN2C[C@]3(CC[C@](c4ccccc4)(N(C)C)CC3)N(CC3CCC3)C2=O)n1`, affinity in assay [2] was put at a Ki of 45 nM.
The same measure, in the same setting: in the case of `CN(C)[C@]1(c2ccccc2)CC[C@]2(CC1)CN(CC(=O)NC1CCS(=O)(=O)CC1)C(=O)N2CC1CCC1` it was 30.5 nM and 90 nM.
In turn, `CN(C)[C@]1(c2ccccc2)CC[C@]2(CC1)CN(CC(=O)N1CCC[C@H]1C(N)=O)C(=O)N2CC1CCC1` yielded a Ki in assay [1] of 5.2 nM. That is a single-digit nanomolar value.
In the case of `CN(C)[C@]1(c2ccccc2)CC[C@]2(CC1)CN(CC(=O)NCC#N)C(=O)N2CC1CCC1`, the Ki in assay [2] was 18.7 nM.
On the same count and under the same terms, in the case of `CSc1ccc(NC(=O)CN2C[C@]3(CC[C@](c4ccccc4)(N(C)C)CC3)N(CC3CCC3)C2=O)nc1` it was 114 nM.
The compound `CN(C)[C@]1(c2ccccc2)CC[C@]2(CC1)CN(CC(=O)NCC(N)=O)C(=O)N2CC1(C#N)CCC1` came in with a Ki in assay [1] of 11.5 nM.
In assay [2], `Cc1ccncc1NC(=O)CN1C[C@]2(CC[C@](c3ccccc3)(N(C)C)CC2)N(CC2CCC2)C1=O` showed a Ki of 20.5 nM.
The same measure, in the same setting: the result for `CCN(C)[C@]1(c2ccccc2)CC[C@]2(CC1)CN(CC(=O)NCC(N)=O)C(=O)N2CC1CCC1` reads 390 nM.
